For one substance, Ka results are on record in US20030017150A1.

Amino acid sequences for entries named in this document (tags omitted). Residues count along the entry.
UniProt P01375, 77-233 limits assumed: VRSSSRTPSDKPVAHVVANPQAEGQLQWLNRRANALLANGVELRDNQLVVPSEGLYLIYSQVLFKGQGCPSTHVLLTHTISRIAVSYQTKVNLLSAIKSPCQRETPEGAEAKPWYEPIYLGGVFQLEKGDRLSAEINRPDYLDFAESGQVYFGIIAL

In the test the target is recombinant human TNF (human) (UniProt P01375). As to the kind of experiment: binding assays of cA2 and recombinant human TNF; format not stated.

On to “Chimeric Ig derived protein cA2 (antibody)”, for which the Ka is 1.04e+10 M⁻¹.
